The values that follow come from US12616760B2, “Synthetic cyclic peptide mimetics” (priority 2020, dated 2026).

Amino acid sequences for entries named in this document (tags omitted). Residues count along the entry.
UniProt P05067, 672-711 limits assumed: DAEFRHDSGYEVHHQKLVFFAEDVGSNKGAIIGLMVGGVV

This test concerns the target T1, Aβ40 (Homo sapiens, UniProt P05067).
T1 construct: The extent of Aβ40 aggregation in the presence of increasing concentrations of azacyclopeptides
Briefly: Thioflavin T (ThT) fluorescence assay of Aβ40 aggregation. Format: biochemical. How it is done:
Amyloid generation can be identified and quantified using the thioflavin T (ThT) fluorescence dye assay. […] Agents that bind and inhibit aggregation of Aβ diminish ThT fluorescence relative to untreated Aβ. The extent of Aβ40 aggregation in the presence of increasing concentrations of azacyclopeptides and azasulfurylcyclopeptide 55 was evaluated by the ThT assay. Fluorescence of Aβ40 that was aged for 48 h was used as control, defined as 0% anti-amyloidogenic activity, and compared with fluorescence in the presence of cyclic peptide mimics at increasing concentrations to measure anti-amyloidogenic activity. To facilitate head-to-head comparisons, azacyclopeptides are grouped into four families: a) Compounds 2-7, each having an aza-glycine in a different position; b) azacyclopeptides with aza-residues other than azaGly, compounds 8-20; c) NOTA-cyclic peptide mimic conjugates (40 and 43) and d) azasulfurylcyclopeptide (55). • a) Compounds 2-7. […] At such high concentrations, compound 2 may serve to promote nucleation and seed Aβ aggregation. […] The tolerance of replacement of certain of the original amino acids of compound 1 by azaGly with respect to inhibitory activity on Aβ aggregation is likely due to the effect of the additional hydrogen-bond donor which may favor interactions that compensate for the loss of more hydrophobic side chains.

Consider “c(D-Leu-L-Nle-D-Trp-L-His-Gly^-L-Lys) [Compound 55]”, for which the “Inhibition of amyloidogenic activity(%)” value (Table 5, Aβ:peptide 1:1) is given as 68.5% and the “Inhibition of amyloidogenic activity(%)” value (Table 5, Aβ:peptide 1:5) was determined as 73%.
